Source: patent EP1422230B1 (priority 2002, dated 2004)
Like-named read-outs stand apart in the source and are kept apart here.

Test system: rats
Conditions: intramuscular injection

Row | Structure (SMILES) | duration of action (0.3 µM/kg in sesame oil) [h] | onset of action (0.3 µM/kg in sesame oil) [h] | duration of action (0.6 µM/kg in sesame oil) [h] | duration of action (different doses (0.6, 6, 60 µM/kg), oil solution) [h]
1 | COC12CCC3(CC1C(C)(O)C(C)(C)C)C1Cc4ccc(OC(=O)CCCCCCCCC(=O)Oc5ccc6c7c5OC5C8(OC)CCC9(CC8C(C)(O)C(C)(C)C)C(C6)N(CC6CC6)CCC759)c5c4C3(CCN1CC1CC1)C2O5 (stereo not shown) | 96 | 2 |  | 
2 | CCCCCCCCCCCCCCCC(=O)Oc1ccc2c3c1OC1C4(OC)CCC5(CC4C(C)(O)C(C)(C)C)C(C2)N(CC2CC2)CCC315 (stereo not shown) |  |  | 96 | 
3 | COC12CCC3(CC1C(C)(O)C(C)(C)C)C1Cc4ccc(OC(=O)CCCCCC(=O)Oc5ccc6c7c5OC5C8(OC)CCC9(CC8C(C)(O)C(C)(C)C)C(C6)N(CC6CC6)CCC759)c5c4C3(CCN1CC1CC1)C2O5 (stereo not shown) | 72 | 2 |  | 
4 | CCCCCCCCCC(=O)Oc1ccc2c3c1OC1C4(OC)CCC5(CC4C(C)(O)C(C)(C)C)C(C2)N(CC2CC2)CCC315 (stereo not shown) |  |  | 96 | 
5 | CCC(=O)Oc1ccc2c3c1OC1C4(OC)CCC5(CC4C(C)(O)C(C)(C)C)C(C2)N(CC2CC2)CCC315 (stereo not shown) |  |  |  | 48 to 60
